Measurements: patent publication US5840485A, “Topologically segregated, encoded solid phase libraries” (priority 1994, dated 1998)

System: anti-β-endorphin monoclonal antibody (clone 3-E 7)
Assay: Screening of encoded peptide library XXXX-Lys(XXXX)-Lys(ZZ) on beads
Type: binding
Conditions: Table 3, two cycles of Edman degradation
Experimental: The peptide library was screened according to published procedures (Lam and Lebl, 1992, Immunomethods 1: 11-15). The peptide beads were first mixed with double-distilled water to remove the DMF. After extensive washing with PBS (137 mM NaCl, 2.7 mM KCl, 4.3 mM Na2 HPO4, 1.4 mM KH2 PO4, pH 7.2), the beads were coated with 0.05% gelatin (w/v) to block any nonspecific binding. The beads were then incubated with a 1:100,000 dilution of streptavidin-alkaline phosphatase at 2 mg/ml (Pierce; Rockford, Ill.) in 2× PBS/Tween/gelatin (2× PBS, 0.1% Tween-20 (v/v), and 0.05% gelatin (w/v)). The beads were then thoroughly washed with TBS (137 mM NaCl, 2.7 mM KCl, 25 mM Tris base, pH 7.4) and the standard substrate 5-bromo-4-chloro-3-indolyl phosphate was added. The beads, together with the substrate, were then transferred to petri dishes for color development. After 30 minutes to 1 hour, the colored beads were collected, with the aid of a micropipette, washed with 6M guanidine hydrochloride, pH 1.0, and subjected to sequencing as described.
The remaining library of colorless beads were then recycled with 8M guanidine hydrochloride, pH 2.0, thoroughly washed with PBS, and incubated with 60 pM biotinylated anti-β-endorphin (clone 3-E 7, Boehringer Mannheim) in 2× PBS/Tween/gelatin overnight. After thorough washing, streptavidin-alkaline phosphatase was added. […]

## YGGL: test peptide sequence deduced from positive beads of the encoded library
  Target of positive bead, deduced sequence: anti-β-endorphin
